Data on nine substances can be found in publication PMC7077804.

Test [1] addresses cardiac G-actin (from pig) (pig). The test can be described thus: SPR; Biacore 2000; cardiac G-actin (pig) or tropomyosin immobilised on CM5 chips by amino coupling at 150 RU; troponin flowed at 0.01-10 uM.
Test [2] has as its target cardiac tropomyosin (porcine) (UniProt P42639). The description is as above.
The target of test [3] is N-terminal fragment of cardiac myosin binding protein C, domains C0-C2 (cMyBPC-C0C2) (human) (UniProt Q14896). The test can be described thus: MST; Monolith NT.115; His6-cMyBPC-C0C2 labelled with RED-tris-NTA, dilution series of cTn complexes or subunits; fit to the Hill function.
Test [4] concerns the target cardiac tropomyosin (porcine) (pig) (UniProt P42639). Briefly: SPR; Biacore 2000; tropomyosin immobilised on a CM5 chip by amino coupling at 150 RU; troponin flowed at 0.01-10 uM; n = 3.
Test [5] concerns the target cardiac actin (from pig) (pig). Briefly: SPR; Biacore 2000; cardiac G-actin (from pig) immobilised on a CM5 chip by amino coupling at 150 RU; troponin flowed at 0.01-10 uM; n = 3.

“human cardiac troponin complex containing cTnI-R170G (from UniProt P19429 1-210; P45379 1-298; P63316 1-161)”: the Kd was 3.2 µM in test [1] and 0.12 µM in test [2].
In the case of “human cardiac troponin complex containing cTnI-R170G (from UniProt P19429 1-210; P45379 1-298; P63316 1-161) (complex; other documents disagree on this pair)”, the Kd in test [3] came to 0.211 µM.
For “human cardiac troponin complex containing cTnI-R170G (from UniProt P19429 1-210; P63316 1-161; P45379 1-298)”, the koff in test [4] turned out to be 3.1 s⁻¹; in test [5], 0.0174 s⁻¹. Also, the kon in test [4] was 2.86e+07 M⁻¹ s⁻¹; in test [5], 5430 M⁻¹ s⁻¹.
In turn, “human cardiac troponin complex containing cTnI-R170W (from UniProt P19429 1-210; P45379 1-298; P63316 1-161)” had a Kd in test [1] of 6.32 µM.
“human cardiac troponin complex containing cTnI-R170W (from UniProt P19429 1-210; P45379 1-298; P63316 1-161) (complex; other documents disagree on this pair)”: the Kd in test [3] amounted to 0.336 µM.
On to “human cardiac troponin complex containing cTnI-R170W (from UniProt P19429 1-210; P63316 1-161; P45379 1-298)”, for which the koff worked out at 1.63 s⁻¹ in test [4] and 0.0165 s⁻¹ in test [5]. The kon in test [4] stood at 7.1e+06 M⁻¹ s⁻¹; in test [5] it was 2610 M⁻¹ s⁻¹.
Take “human cardiac troponin complex containing wildtype cTnI (from UniProt P19429 1-210; P45379 1-298; P63316 1-161)”: the Kd in test [1] was determined as 5.34 µM.
In test [3], “human cardiac troponin complex containing wildtype cTnI (from UniProt P19429 1-210; P45379 1-298; P63316 1-161) (complex; other documents disagree on this pair)” displayed a Kd of 0.337 µM.
In test [4], “human cardiac troponin complex containing wildtype cTnI (from UniProt P63316 1-161; P45379 1-298)” yielded a koff of 32.4 s⁻¹ and a kon of 1.58e+07 M⁻¹ s⁻¹. In addition, in test [5], the koff is 0.0207 s⁻¹ and the kon turned out to be 3880 M⁻¹ s⁻¹.
